Where “and” joins values, the source holds several entries; their conditions need not be identical. Equal entries are not always repeated.
Columns and labels:
Type in all cases: cell-based, human
[1] = tested on: PBMC from allergic donors; experiment: Dual ELISPOT, total IL-5 and IFN-γ response (SFC); conditions: sum of IFNg and IL-5; one donor per table line
Procedure: (§1) Spots were counted by computer-assisted image analysis (Zeiss, KS-ELISPOT reader, Munich, Germany).
(§2) Each assay was performed in triplicate. The level of statistical significance was determined with a Student's t-test using the mean of triplicate values of the response against relevant pools or individual peptides versus the response against the DMSO control.

[2] = tested on: PBMC from allergic donors; experiment: IL-5 ELISPOT with extract-stimulated short-term lines; conditions: positive donor/peptide response; one donor per table line
Procedure: as §1, §2

[3] = tested on: PBMC from allergic donors; experiment: IFN-γ ELISPOT with extract-stimulated short-term lines; conditions: positive donor/peptide response; one donor per table line
Procedure: as §1, §2

Q: What does the source list for `CC[C@H](C)[C@H](NC(=O)[C@H](CO)NC(=O)CNC(=O)CN)C(=O)N[C@@H](CC(C)C)C(=O)N[C@@H](CCCCN)C(=O)N[C@H](C(=O)N[C@@H](CO)C(=O)N[C@@H](CC(N)=O)C(=O)N[C@@H](CCCCN)C(=O)N[C@@H](Cc1ccc(O)cc1)C(=O)N[C@@H](Cc1c[nH]cn1)C(=O)N[C@H](C(=O)N[C@@H](CCCCN)C(=O)NCC(=O)O)[C@@H](C)O)[C@@H](C)CC` [3324.0352]?
A: Response (SFC/10^6) Total [1]: 280 SFC/10^6 and 612 SFC/10^6 and 240 SFC/10^6; Response (SFC/10^6) IL-5 [2]: 280 SFC/10^6; Response (SFC/10^6) IFNg [3]: 612 SFC/10^6 and 240 SFC/10^6

Q: Which “Response (SFC/10^6) Total” value [1] does the source give for `CC[C@H](C)[C@H](NC(=O)[C@H](CCCCN)NC(=O)[C@H](CCC(=O)O)NC(=O)[C@@H](N)CC(C)C)C(=O)N[C@@H](CO)C(=O)N[C@@H](CC(N)=O)C(=O)N[C@@H](CCC(=O)O)C(=O)N[C@H](C(=O)N[C@@H](CCCCN)C(=O)N[C@H](C(=O)N[C@H](C(=O)N[C@@H](C)C(=O)N[C@H](C(=O)N1CCC[C@H]1C(=O)N[C@@H](CC(=O)O)C(=O)O)[C@@H](C)O)C(C)C)[C@@H](C)CC)[C@@H](C)CC` [3324.0353] here?
A: The value was 92 SFC/10^6 and 370 SFC/10^6.

Q: What about the “Response (SFC/10^6) IL-5” value [2] of the same molecule?
A: The value was 370 SFC/10^6.

Q: What about the “Response (SFC/10^6) IFNg” value [3] of the same molecule?
A: The value was 92 SFC/10^6.

From US10918713B2, “Epitopes from allergen proteins and methods and uses for immune response modulation” (LA JOLLA INSTITUTE FOR ALLERGY AND IMMUNOLOGY, priority 2012, dated 2021)
